Tested on: Wistar rats
Assay: Catalepsy (CAT) measurement on inclined grid in rats
Settings: idazoxan 1.5 mg/kg s.c.

Cc1cc2c(s1)Nc1ccccc1N=C2N1CCN(C)CC1 [olanzapine]
CAT rating ± semi-interquartile range (0.5 hrs after olanzapine 2.5 mg/kg i.p., catalepsy score 0-5, 8 rats per group): 1 ± 2.0 | catalepsy compared to vehicle treated controls (olanzapine 2.5 mg/kg i.p., alone or in combination): did not produce any significant catalepsy

— patent US20040127489A1, “Novel antipsychotic combination therapies and compositions useful therein” (priority 2002, published 2004)
